{"source": "paper PMC2580030", "about": "(PLoS ONE, 2008)", "target": "T1, HLA-DR1 (Homo sapiens, UniProt P01903+P01911, A100R/D57E/F55L/F60I/F76Y/I96L/L162R/M171V/P40L/Q125E/R42F/V115G/Y59C)", "T1 construct": "made in house; host or cells: stably transfected Drosophila S2 insect cell lines (DR1 and DM separately)", "assay_type": "binding", "settings": "pH 5", "data": [{"sequence": "GPKYVKQNTLKLAT [HA, residues 306–318 of the hemagglutinin protein from influenza A virus (H3 subtype) with N-terminal Gly]", "values": [{"measurement": "t1/2 of DR1/peptide complex (dissociation of prebound peptide)", "result": "7.4623 ± 1.26", "unit": "h"}]}]}
